Only some compounds are listed: those with a hit (about 1.2% of all), similar ones and a draw of the others.
miR-122 sensor – blocks miR-122 activity in Huh7 sensor cells. Huh7 miR-122 Renilla luciferase sensor, 48 h; neutral wells = 0, positive control = 100. activation (reporter increase), % at 12.5 µM. 340,000 tested, 0.3% active. AID 602342;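 active = mean replicate activation score at least 90 and every replicate individually at or above 90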;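 also: higher luciferase means less miR-122 activity so hits act as miR-122 inhibitors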
Cneo AK release – causes C. neoformans cell lysis | adenylate kinase release luminescence, 4 h; normalised: neutral wells 0, clomiphene wells 100 | lysis activity, % at 15 µM | 360,000 tested, 0.2% active | AID 651654;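 active = mean lysis activity across replicates of at least 80%, whatever share of replicates individually reach that level; inactive = mean lysis activity below 80%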
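Assay system: log-phase C. neoformans yeast / Quantity: yeast cell density of 5 × 10^6 cells/mL / Medium: fresh YPD growth medium / Compound: single dose / Timing: static 4 h at 37 °C with compound, 1 h detection / Measured by: adenylate kinase release luminescence / Read-out: lysis from increased AK signal / Benchmarks: Clomiphene as positive lysis control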
C2C12 statin – protects C2C12 myotubes from simvastatin toxicity; ATP luminescence, 48 h; scaled: DMSO 0, geranylgeraniol control 100; rescue of ATP level, % at 7.49 µM; 330,000 tested, 0.78% active; AID 602340;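 active = mean ATP rescue above about 67%, or every replicate alone reaching that limit, limit read from the data, passing the limit was not always enough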;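 also: myotubes were challenged with 10 µM simvastatin during compound exposure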
Yeast UUG start – modulators of start codon recognition fidelity in yeast; S. cerevisiae UUG-firefly luciferase reporter, luminescence/redox ratio; activity score, % at 18.7 µM; hit rate 0.13% among 350,000; AID 602363;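 active = replicate mean at a twofold rise or more, about +100% in these data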;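 note: firefly luciferase made from a UUG start codon reports start codon fidelity; reporter light over untreated wells divided by growth signal over untreated wells; some hits fall short of that in this replicate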
* marks the source's active call; other numbers are inactive results; · = no result; [ ] = another dose, or the depositor's remark.

(1) Cc1nc2ncnn2c(N2CCN(C(c3ccccc3)c3ccccc3)CC2)c1C
(2) COc1cc(NC(=O)[C@H]2CSCN2C(=O)[C@@H]2CCC(=O)N2)cc(OC)c1OC
(3) CC(C)c1ccc(NC(=O)[C@H]2CSCN2C(=O)[C@@H]2CCC(=O)N2)cc1
(4) CSc1nc(Sc2ccccc2)c2ccccc2n1
(5) CSc1nc(Sc2ccc(Cl)cc2)c2ccccc2n1
(6) C[C@@H]1CCCCO[C@@H](CN(C)C(=O)Nc2cccc3ccccc23)[C@@H](C)CN([C@H](C)CO)C(=O)c2cc(NC(=O)Nc3ccc(C(F)(F)F)cc3)ccc2O1
(7) Cc1ccccc1-c1cnc2c(c1)C(=O)N([C@H](C)CO)C[C@@H](C)[C@H](CN(C)Cc1cccnc1)O2
(8) O=C(COc1ccc2ccccc2c1)NNC(=O)Cc1cccc2ccccc12

Compound	1	2	3	4	5	6	7	8
Yeast UUG start	-4	-18	-19	·	-2	-18	-4	-19
miR-122 sensor	-4	-1	-8	-9	-1	-6[16.7 µM]	1[16.7 µM]	-4
C2C12 statin	79*	-1	109*	17	146*	-9	10	114*
Cneo AK release	1	1	-2	·	-2	-4	2	-2

(9) O=C(COc1ccc2ccccc2c1)NNC(=O)Cc1ccccc1
(10) CCOC(=O)c1sc(NC(=O)C2CC2)nc1C
(11) CCOC(=O)c1sc(NCC2CCCO2)nc1C (centres undefined)
(12) Cc1cc(=O)[nH]c(SCC(=O)NC2CCCCC2)n1
(13) Cc1cc(=O)[nH]c(SCC2(O)C3CC4CC(C3)CC2C4)n1 (centres undefined)
(14) O=C1c2cccc3c([N+](=O)[O-])ccc(c23)C(=O)N1c1ccc(Cl)cn1
(15) COCC(=O)Nc1ccc2c(c1)C(=O)N(C)C[C@H](OC)[C@@H](C)CN(CC1CCCCC1)[C@@H](C)CO2
(16) Cc1ccc(N(Cc2ccco2)C(=O)c2ccc(N3CCCCC3)c([N+](=O)[O-])c2)cc1

Compound	9	10	11	12	13	14	15	16
Yeast UUG start	2	-7	14	-22	-2	3	-9	-8
miR-122 sensor	-1	10	-3	-4	62	8	3[16.7 µM]	165*
C2C12 statin	-8	-11	113*	28	113*	129*	-10	0
Cneo AK release	-1	-3	3	-5	1	15	-1	0

(17) CN(C(=O)c1ccc(N2CCCCC2)c([N+](=O)[O-])c1)C1CCS(=O)(=O)C1 (centres undefined)
(18) C[C@@H]1CN([C@H](C)CO)C(=O)CCCn2cc(nn2)CO[C@H]1CN(C)Cc1cccc(C(F)(F)F)c1
(19) O=C(C[C@H]1CC[C@@H]2[C@H](COC[C@@H](O)CN2S(=O)(=O)c2ccc(F)cc2)O1)N[C@H]1CCN(Cc2ccccc2)C1
(20) Cc1noc(C)c1S(=O)(=O)Nc1ccc2c(c1)C(=O)N([C@@H](C)CO)C[C@@H](C)[C@@H](CN(C)S(=O)(=O)c1ccc(Cl)cc1)OCCCC[C@H](C)O2
(21) C[C@@H]1CCCCO[C@H](CN(C)S(=O)(=O)c2ccc(Cl)cc2)[C@H](C)CN([C@@H](C)CO)C(=O)c2cc(NS(C)(=O)=O)ccc2O1
(22) COc1ccc(NC(=O)Nc2ccc3c(c2)C(=O)N([C@@H](C)CO)C[C@H](C)[C@@H](CN(C)S(=O)(=O)c2ccc(Cl)cc2)OCCCC[C@@H](C)O3)cc1
(23) COc1ccc(NC(=O)Nc2ccc3c(c2)C(=O)N([C@H](C)CO)C[C@@H](C)[C@H](CN(C)S(=O)(=O)c2ccc(Cl)cc2)OCCCC[C@@H](C)O3)cc1
(24) Cc1ccc(S(=O)(=O)Nc2ccc3c(c2)C(=O)N([C@@H](C)CO)C[C@@H](C)[C@@H](CN(C)S(=O)(=O)c2ccc(Cl)cc2)OCCCC[C@H](C)O3)cc1

Compound	17	18	19	20	21	22	23	24
Yeast UUG start	-14	-1	10	-25	14	-5	7	3
miR-122 sensor	-2	-1[16.7 µM]	-4[16.7 µM]	-1[16.7 µM]	5[16.7 µM]	1[16.7 µM]	14[16.7 µM]	39[16.7 µM]
C2C12 statin	108*	19	5	140*	163*	·	·	·
Cneo AK release	-1	11	3	-2	5	-18	87*	101*

(25) C[C@@H]1CN([C@H](C)CO)C(=O)c2cc(NS(C)(=O)=O)ccc2O[C@@H](C)CCCCO[C@H]1CN(C)S(=O)(=O)c1ccc(Cl)cc1
(26) Cc1noc(C)c1S(=O)(=O)Nc1ccc2c(c1)C(=O)N([C@@H](C)CO)C[C@@H](C)[C@H](CN(C)S(=O)(=O)c1ccc(Cl)cc1)OCCCC[C@@H](C)O2
(27) Cc1ccc(S(=O)(=O)Nc2ccc3c(c2)C(=O)N([C@@H](C)CO)C[C@H](C)[C@@H](CN(C)S(=O)(=O)c2ccc(Cl)cc2)OCCCC[C@@H](C)O3)cc1
(28) C[C@@H]1CN([C@H](C)CO)C(=O)c2cccc(NC(=O)c3ccncc3)c2O[C@@H]1CN(C)S(=O)(=O)c1cccs1
(29) CO[C@@H]1CN(C)C(=O)c2ccc(NC(=O)c3cnccn3)cc2OC[C@H](C)N(C)C[C@H]1C
(30) CCCNC(=O)C[C@H]1CC[C@H]2[C@@H](COc3ccc(NC(=O)c4ccccc4)cc3C(=O)N2C)O1
(31) Cc1cc(C(=O)Nc2cccc3c2O[C@@H](CN(C)Cc2ccccc2)[C@@H](C)CN([C@@H](C)CO)C3=O)n(C)n1
(32) CCOC(=O)CN1C(=O)C(C)(C)Oc2ccc(C(=O)Nc3ccccc3)cc21

Compound	25	26	27	28	29	30	31	32
Yeast UUG start	10	5	-9	0	·	2	3	-1
miR-122 sensor	-1[16.7 µM]	-14[16.7 µM]	10[16.7 µM]	-22[16.7 µM]	2[16.7 µM]	-5[16.7 µM]	41[16.7 µM]	159*
C2C12 statin	-17	-10	·	-5	-7	-15	-1	0
Cneo AK release	3	0	-1	-18	-1	0	-5	1

(33) COc1ccc(NC(=O)Nc2ccc3c(c2)CC(=O)N([C@H](C)CO)C[C@@H](C)[C@@H](CN(C)S(=O)(=O)c2cccs2)O3)cc1
(34) COc1ccc(NC(=O)Nc2ccc3c(c2)CC(=O)N([C@H](C)CO)C[C@H](C)[C@H](CN(C)S(=O)(=O)c2c(C)noc2C)O3)cc1
(35) Cc1nn(C(=O)c2ccco2)c(C)c1Sc1ccc([N+](=O)[O-])cc1
(36) Cc1nn(C(=O)c2cccnc2)c(C)c1Sc1ccc(Br)cc1
(37) CSc1nnc2c3cc(F)ccc3n(Cc3ccccc3)c2n1
(38) COc1ccccc1Cn1c(CCCO)nc2ccccc21
(39) Cc1ccc(OCCCn2c(CO)nc3ccccc32)cc1
(40) COCCOCCn1c(CCCO)nc2ccccc21

Compound	33	34	35	36	37	38	39	40
Yeast UUG start	-3	-5	-6	-21	-19	-12	-15	-18
miR-122 sensor	-3[16.7 µM]	-2[16.7 µM]	-3	0	164*	-1	4	-4
C2C12 statin	8	-8	·	75*	-9	7	134*	82*
Cneo AK release	0	2	3	-1	10	0	-6	-4

An excerpt from above in order of molecular weight, largest number first.
(36) Cc1nn(C(=O)c2cccnc2)c(C)c1Sc1ccc(Br)cc1
(37) CSc1nnc2c3cc(F)ccc3n(Cc3ccccc3)c2n1
(38) COc1ccccc1Cn1c(CCCO)nc2ccccc21

Compound	36	37	38
Yeast UUG start	-21	-19	-12
miR-122 sensor	0	164*	-1
C2C12 statin	75*	-9	7
Cneo AK release	-1	10	0

(more compounds)
(41) Cc1cccc(OCCCn2c(CO)nc3ccccc32)c1
(42) CO[C@H]1CN(C)C(=O)c2cc(NC(=O)c3ccccc3)ccc2OC[C@@H](C)NC[C@@H]1C
(43) CCC(=O)Nc1ccc2c(c1)C(=O)N(C)C[C@H](OC)[C@H](C)CN(C(=O)NC(C)C)[C@H](C)CO2
(44) C/C=C/c1cnc2c(c1)C(=O)N([C@H](C)CO)C[C@@H](C)[C@H](CN(C)C(=O)c1ccc3c(c1)OCO3)O2
(45) CC(C)NC(=O)Cn1c(=O)n(CC(=O)N2CCCCC2)c(=O)c2sccc21

Compound	41	42	43	44	45
Yeast UUG start	-27	12	-15	-1	-21
miR-122 sensor	27	-6[16.7 µM]	-1[16.7 µM]	3[16.7 µM]	-1
C2C12 statin	17	13	-1	3	101*
Cneo AK release	-5	43	0	7	-2
